This experiment addresses hM3Dq (Homo sapiens, UniProt P20309, A239G/Y149C). As to the kind of experiment: [3H]clozapine competition binding, membranes of HEK-293 cells expressing hM3Dq.

By UniProt entry, the sequences of proteins in these tests, tags left out.
UniProt P20309, whole entry Y149C/A239G: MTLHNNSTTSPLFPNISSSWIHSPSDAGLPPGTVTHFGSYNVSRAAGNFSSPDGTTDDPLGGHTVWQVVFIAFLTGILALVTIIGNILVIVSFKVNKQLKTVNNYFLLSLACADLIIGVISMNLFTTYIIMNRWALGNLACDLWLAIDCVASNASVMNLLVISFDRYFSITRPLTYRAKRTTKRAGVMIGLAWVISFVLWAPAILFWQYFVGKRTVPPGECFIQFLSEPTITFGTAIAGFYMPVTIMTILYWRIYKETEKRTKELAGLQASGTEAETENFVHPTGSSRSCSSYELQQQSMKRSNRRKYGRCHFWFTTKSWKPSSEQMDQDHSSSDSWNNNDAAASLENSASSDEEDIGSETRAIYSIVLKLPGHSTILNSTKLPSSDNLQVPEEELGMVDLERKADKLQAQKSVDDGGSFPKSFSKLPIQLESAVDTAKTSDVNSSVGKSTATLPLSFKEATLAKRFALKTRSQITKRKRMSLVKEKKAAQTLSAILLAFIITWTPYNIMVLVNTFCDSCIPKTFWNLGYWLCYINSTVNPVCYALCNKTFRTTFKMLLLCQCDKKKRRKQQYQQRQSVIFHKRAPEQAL

The results in this text go back to PMC6788984, “High-potency ligands for DREADD imaging and activation in rodents and monkeys” (Nature Communications, 2019).

Structures are written as SMILES.

For orientation: Ki means a dissociation constant, usually derived from enzyme kinetics or from competition with a known ligand.

`CCN1CCN(C2=Nc3ccccc3Nc3ccccc32)CC1` [C22, reference compound]: the inhibition constant Ki was 11 nM.
